activity, negative = inhibition data for 48 compounds are collected here from PubChem BioAssay AID2549 (National Center for Advancing Translational Sciences (NCATS), 2010).

Protein sequences, listed by entry. Tags and fused reporters are not part of them.
UniProt P46063, whole entry: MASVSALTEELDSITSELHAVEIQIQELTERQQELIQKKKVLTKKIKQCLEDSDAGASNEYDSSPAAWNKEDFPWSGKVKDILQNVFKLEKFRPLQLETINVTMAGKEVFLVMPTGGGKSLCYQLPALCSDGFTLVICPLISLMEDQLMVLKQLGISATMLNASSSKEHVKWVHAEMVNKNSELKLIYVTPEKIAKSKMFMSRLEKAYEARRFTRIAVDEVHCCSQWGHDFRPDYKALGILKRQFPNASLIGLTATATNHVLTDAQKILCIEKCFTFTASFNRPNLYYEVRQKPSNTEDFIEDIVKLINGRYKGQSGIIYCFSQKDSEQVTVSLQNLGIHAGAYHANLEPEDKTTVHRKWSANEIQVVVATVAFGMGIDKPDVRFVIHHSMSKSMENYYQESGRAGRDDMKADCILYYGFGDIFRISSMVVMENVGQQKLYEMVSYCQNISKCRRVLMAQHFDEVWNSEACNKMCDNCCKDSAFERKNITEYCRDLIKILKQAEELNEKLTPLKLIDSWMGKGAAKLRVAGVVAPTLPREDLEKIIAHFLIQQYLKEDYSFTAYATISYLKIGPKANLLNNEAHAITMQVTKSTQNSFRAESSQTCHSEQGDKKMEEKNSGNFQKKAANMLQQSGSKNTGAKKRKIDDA

SMILES strings stand for the structures. The list shows a part of the results, in another mix than the full data. Active and inactive are the calls of the source. Calls come from the whole dose curve; as a rule, active = well fitted inhibition curve with a large enough effect; inconclusive = small, poorly fitted or top-dose-only effect; inactive = flat fitted curve, though single readings scatter.

This test deals with ATP-dependent DNA helicase Q1 (Homo sapiens) (UniProt P46063). Kind of test: qHTS Assay for Inhibitors of RecQ-Like Dna Helicase 1 (RECQ1). Note: nearly all actives have a fitted effect of over 30% in size. The settings on record: RECQ1 DNA unwinding, red fluorescence kinetic read; activity, negative = inhibition: at 57.3 µM (top of the series) unless noted. The source says:
Survival of cells and the faithful propagation of the genome depend on elaborate mechanisms of detecting and repairing DNA damage. Treatment of advanced cancer relies on radiation therapy or chemotherapy, which kill cancer cells by causing extensive DNA damage. It is often found, that cancer cells develop resistance to therapy through enhanced activity of DNA repair functions; this has led to an increased interest in developing drugs that interfere with DNA repair, which could sensitize cancer cells to conventional therapy.
This validation qHTS assay pertains to human RECQ1, which is important in resolving abnormal DNA structures formed during replication or homologous recombination. Shutting down the expression of RECQ1 leads to chromosomal instability and higher radiation sensitivity in cultured cells.
The validation assay was a fluorescence quenching based kinetic qHTS for RECQ1 Helicase DNA unwinding. The activity was measured as ATP-dependent separation of a 20-bp DNA duplex extended by 30-nt single-stranded tails (forked duplex). The forked DNA substrate was tagged with rhodamine fluorophore (carboxytetramethyl rhodamine, TAMRA) and BHQ-2 (Black Hole Quencher 2) dark quencher. Strand separation results in an increase in the fluorescence of TAMRA (excitation 525 nm, emission 598 nm). This substrate construct operates in a red-shifted region where very few compound library members have been noted to fluoresce (PubChem AIDs 593 and 594). An additional feature of the assay is the inclusion of 2.5 ug/ml poly (dIdC), to reduce interference by compounds such as DNA intercalators, a major source of false inhibitors.
Opher Gileadi, Structural Genomics Consortium, University of Oxford
Screening Center PI: Austin, C.P.
Screening Center: NIH Chemical Genomics Center [NCGC]
Three uL of reaction buffer (25 mM Tris-HCl (pH 8.0), 5 mM NaCl, 2 mM MgCl2, 1mM DTT, 0.01% Tween- 20, and 2.5 ug/ml poly(dI-dC), including enzyme (50 nM RECQ1T1), were dispensed into a 1536-well Greiner black assay plate via solenoid-valve based nanoliter dispensers. Compounds (23 nl each in columns 5-48) and control (23 nl each in column 2 as dose-response) were transferred via a Kalypsys pintool equipped with a 1536-pin array. The plates were incubated for 15 min at room temperature, and then 1 ul of substrates (200 nM DNA and 2 mM ATP, final concentrations) was added to start the reaction. The plate was transferred into a ViewLux high-throughput CCD imager where the reaction progress was measured in a discontinuous kinetic mode (two reads spaced 2 hours apart, with intermediate room temperature incubation of the covered assay plate) by using standard red-fluorescence optics (excitation filter 525 nm, emission filter 598 nm). Enzyme-free and vehicle (DMSO) controls were included for signal normalization.
Background: Quantitative high-throughput screening tests each substance at several concentrations.
As for `COc1ccc(OP(C)(=O)Nc2ccc(SC(F)(F)F)cc2)cc1` (stereo not drawn), the activity, negative = inhibition is inactive: -13.7%.

Consider `CCC(C)(OO)OOC(C)(CC)OO` (stereo not drawn), for which the activity, negative = inhibition is inactive: -1.91%. For `Cc1cccc([N+](=O)[O-])c1[N+](=O)[O-]` the value was inactive: 4.69%. On to `O=C(OCCN1CCN(CCOCc2ccccc2)CC1)C(O)(c1ccccc1)c1ccccc1`, for which the activity, negative = inhibition was inactive: -3.99%.

For the compound `CP(=O)(Nc1ccccc1F)Oc1ccccc1` (stereo not drawn), the activity, negative = inhibition entry is “inactive”. Turning to `CC(C)c1ccc(OP(C)(=O)Nc2ccc(SC(F)(F)F)cc2)cc1` (stereo not drawn), the activity, negative = inhibition is inactive: -12.8%. The value for `Cc1ccccc1NP(C)(=O)Nc1ccccc1C` was inactive: -2.73%; that for `CCN(CCCl)Cc1ccccc1C` was inactive: -4.08%; that for `[NH4+].[O-][Cl+3]([O-])([O-])[O-]` was inactive: -18.7%. With `CP(=O)(Nc1ccc2c(c1)OCCO2)Oc1ccccc1` (stereo not drawn), the activity, negative = inhibition is inactive: -1.71%. `CCOP(C)(=S)SCC(=O)NC(C)(CC)C(=O)O` (stereo not drawn): the activity, negative = inhibition is inactive: -10.1%.

Consider `CCOP(=O)(CC)OCC`, for which the activity, negative = inhibition was inactive: -0.502%. For `CP(=O)(Nc1ccc(SC(F)(F)F)cc1)Oc1ccc(F)cc1` (stereo not drawn) the value was inactive: -5.74%. For the compound `O=[N+]([O-])c1ccc(OP2(=O)COCCO2)cc1` (stereo not drawn), the activity, negative = inhibition is inactive: -11.5%.

As for `Cc1ccc([N+](=O)[O-])c([N+](=O)[O-])c1`, the activity, negative = inhibition is inactive: 11.1%. As to `Cc1c([N+](=O)[O-])cccc1[N+](=O)[O-]`, the activity, negative = inhibition was inactive: -6.44%. The value for `Cc1cc(-c2cccc3ccccc23)c(C)cn1.O=[N+]([O-])c1cc([N+](=O)[O-])c(O)c([N+](=O)[O-])c1` was “inactive”. With `CN(C)CCOC(=O)C(O)(c1ccccc1)C1CCCCC1` (stereo not drawn), the activity, negative = inhibition was inactive: 2.81%.

In the case of `COc1ccc(NP(C)(=O)Oc2ccccc2OC)cc1` (stereo not drawn), the activity, negative = inhibition entry was “inactive”. For `COc1ccc(OP(C)(=O)Nc2cccc(Br)c2)cc1` (stereo not drawn) the value was “inactive”; for `C/C1=C2N=C(/C=C3N=C(/C(C)=C4\[N-][C@@](C)([C@H]5N=C1[C@@](C)(CCC(=O)NC[C@H](C)OP(=O)([O-])O[C@@H]1[C@H](O)[C@H](n6cnc7cc(C)c(C)cc76)O[C@@H]1CO)[C@@H]5CC(N)=O)[C@](C)(CC(N)=O)[C@H]4CCC(N)=O)[C@@](C)(CC(N)=O)[C@@H]\3CCC(N)=O)C(C)(C)[C@@H]/2CCC(N)=O.[C-]#N.[Co+3]`, inactive: -7.42% [at 25.9 µM]; for `CCOC(=O)c1ccc(NP(C)(=O)Oc2ccc(Cl)cc2)cc1` (stereo not drawn), inactive: 0.0943%. The value for `CP(=O)(OC12CC3CC(CC(C3)C1)C2)OC12CC3CC(CC(C3)C1)C2` was “inactive”. As for `CN(C)C(=O)c1c([N+](=O)[O-])cc([N+](=O)[O-])cc1[N+](=O)[O-]`, the activity, negative = inhibition was inactive: -10.2%.

`COc1ccccc1OP(C)(=O)Nc1ccccc1Br` (stereo not drawn): the activity, negative = inhibition entry was “inactive”. The value for `CC(C)(C)c1ccc(OP(C)(=O)O)cc1` was inactive: -3.03%; that for `CP(=O)(Nc1ccc(Cl)cc1)Oc1ccc(F)cc1` (stereo not drawn) was “inactive”; that for `COc1ccccc1OP(C)(=O)Nc1c(C)n(C)n(-c2ccccc2)c1=O` (stereo not drawn) was “inactive”. Take `OCCSCCO`: the activity, negative = inhibition was inactive: 16.9%.

For the compound `O=C(OCCCN1CCCC1)C(O)(c1ccccc1)C1CCCCC1` (stereo not drawn), the activity, negative = inhibition was inactive: -7.28%. For `CP(=O)(Oc1ccccc1)N1CCOC1=O` (stereo not drawn) the value was inactive: -3.49%.

With `CCc1ccc(OP(C)(=O)Nc2cccnc2)cc1` (stereo not drawn), the activity, negative = inhibition result was “inactive”. As to `CCN(CC)CC(O)COC(=O)C(O)(c1ccccc1)C1CCCCC1` (stereo not drawn), the activity, negative = inhibition was inactive: 5.26%.

Regarding `COc1ccc(OP(C)(=O)Nc2ccc(Br)cc2)cc1` (stereo not drawn), the activity, negative = inhibition is inactive: -6.55%. Take `CP(=O)(Nc1ccccn1)Oc1ccccc1` (stereo not drawn): the activity, negative = inhibition is inactive: -4.26%. With `COc1ccccc1OP(C)(=O)Nc1ccc(C)cc1C` (stereo not drawn), the activity, negative = inhibition entry was “inactive”. `CCc1ccc(OP(C)(=O)O)cc1`: the activity, negative = inhibition is inactive: 4.78%. For `Cc1c(NP(C)(=O)Oc2ccc(C(C)C)cc2)c(=O)n(-c2ccccc2)n1C` (stereo not drawn) the value was “inactive”; for `O=[N+]([O-])c1cc([N+](=O)[O-])c(Nc2ccccn2)c([N+](=O)[O-])c1`, inactive: -8.44%; for `COc1ccc(OP(C)(=O)Nc2ccccn2)cc1` (stereo not drawn), “inactive”. For `CN(C)CCOC(=O)C(O)(c1ccccc1)C1CCCC1` (stereo not drawn) the value was inactive: -7.47%; for `COc1ccccc1OP(C)(=O)Nc1ccc(Br)cc1` (stereo not drawn), inactive: -7.75%.

Take `CP(=O)(Nc1ccc(Cl)cc1Cl)Oc1ccccc1` (stereo not drawn): the activity, negative = inhibition is inactive: -5.25%. Regarding `CP(=O)(OCCOc1ccccc1)OCCOc1ccccc1`, the activity, negative = inhibition is inactive: -11.6%. For the compound `Cc1nc2ccc3ccccc3c2o1.O=[N+]([O-])c1cc([N+](=O)[O-])c(O)c([N+](=O)[O-])c1`, the activity, negative = inhibition entry is “inactive”. The value for `COc1ccccc1OP(C)(=O)Nc1ccc(C)c(C)c1` (stereo not drawn) was inactive: -0.154%; that for `COc1ccc(OP(C)(=O)Nc2ccccc2Br)cc1` (stereo not drawn) was inactive: -12.9%. `Cc1cc(C)cc(OP(C)(=O)Nc2cccc(C(F)(F)F)c2)c1` (stereo not drawn): the activity, negative = inhibition is inactive: -9.44%.
